This passage reports survival enhancement results from PubChem BioAssay AID602274 (Sanford-Burnham Center for Chemical Genomics, 2012).

This is a selection; strong and weak results do not stand in their true shares. Active and inactive are the calls of the source. Rule as the data show it: active = survival enhancement above about 18%; inactive = the rest.

This experiment in a line: enhancers of single-cell hiPSC survival, primary screen, ATPlite luminescence (AID 602274).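 Also: cells exposed to compounds for 16 hours before the ATP read.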 The note with it: at 20 µM, active compounds read high, 100% = ROCK inhibitor wells, 0% = DMSO. Background: ATP-based viability assays read luminescence as a measure of living cells.
For `CCC(C)N(CC(C)C)C(=S)SC(NC(C)=O)C(Cl)(Cl)Cl` (centres undefined), the survival enhancement was inactive: 0.5%.
With `CCOC(=O)c1ccc(NC(=O)C(C)(CCl)SC)cc1` (centres undefined) the figure was inactive: -0.1%; with `CSc1ccc(Nc2c([N+](=O)[O-])cc([N+](=O)[O-])cc2[N+](=O)[O-])cc1`, inactive: -2%; with `O=C(OC1CN2CCC1CC2)c1cccc([N+](=O)[O-])c1` (centres undefined), inactive: -0.4%.
With `O=C(Nc1ccncc1[N+](=O)[O-])c1ccc([N+](=O)[O-])cc1[N+](=O)[O-]` the figure was inactive: 0.6%; with `O=C(COc1ccccc1)OC1CN2CCC1CC2` (centres undefined), inactive: -1.4%.
Consider `O=C(O)C(=O)c1ccc(N(CCCl)CCCl)cc1`, for which the survival enhancement was inactive: 1.1%.
With `COC(=O)C1(C)COP(=O)(N2CCCC2)OC1` (centres undefined) the figure was inactive: 1.6%; with `COP1(=S)c2c(C)nn(CCC#N)c2N=C(c2ccc(F)cc2)N1C` (centres undefined), inactive: 5.4%.
The result for `O=[N+]([O-])c1ccc(Nc2ccc(Oc3ccc([N+](=O)[O-])cc3[N+](=O)[O-])cc2)c([N+](=O)[O-])c1` reads inactive: 0%; that for `Cc1cc(SC(NC=O)C(Cl)(Cl)Cl)ncn1` (centres undefined), inactive: 0.5%.
With `O=P(Nc1ccccn1)(c1cccc2ccccc12)c1cccc2ccccc12` the figure was inactive: 0.1%; with `CCOC(=O)Nc1cccc([As](=O)(O)O)c1`, inactive: -0.3%; with `Cc1cc(SC(NC(=O)c2ccccc2)C(Cl)(Cl)Cl)nc(C(C)C)n1` (centres undefined), inactive: -0.6%.
With `COP(=O)(OC)N1CC1c1ccccc1` (centres undefined), the survival enhancement was inactive: -2.8%.
The result for `CC1CCNP(=O)(N(CCCl)CCCl)O1` (centres undefined) reads inactive: 1.1%; that for `O=C(O)C(O)c1ccc(N(CCCl)CCCl)cc1` (centres undefined), inactive: 3%.
As to `CCOC(=O)Nc1ccc([As](=O)(O)O)c(O)c1`, the survival enhancement was inactive: -0.1%.
The result for `O=[N+]([O-])c1cc([N+](=O)[O-])c(-c2ccn[nH]2)s1` reads inactive: -1.4%; that for `CC(C)NC(=O)NP(=O)(Oc1ccccc1)Oc1ccccc1`, inactive: -0.2%; that for `CCN(CC)C(=S)SC(NC=O)C(Cl)(Cl)Cl` (centres undefined), inactive: 0.5%.
On to `O=C(OC1CN2CCC1CC2)c1cccc2[nH]cnc12` (centres undefined), for which the survival enhancement was inactive: -0.2%.
`COC(=O)C1(C)COP(=O)(N2CCCCCC2)OC1` (centres undefined): the survival enhancement is inactive: 0.6%.
The result for `CC(C)c1ccc(OP(=O)(Nc2ccccn2)Oc2ccccc2F)cc1` (centres undefined) reads inactive: -0.5%.
In the case of `ClCCSc1nnc(-c2cccnc2)o1`, the survival enhancement was inactive: 8.5%.
For `Cc1ccc2nc3c(c(C)c2c1)CC(C(Cl)Cl)S3` (centres undefined), the survival enhancement was inactive: 1.7%.
The result for `Cc1ccc(OP(=O)(Nc2ccc([N+](=O)[O-])cn2)Oc2ccc(C)cc2)cc1` reads inactive: -0.2%; that for `[N-]=[N+]=NC1CCCCC1NC(=O)c1cc([N+](=O)[O-])cc([N+](=O)[O-])c1` (centres undefined), inactive: 0.2%.
As to `O=[N+]([O-])c1ccc(-c2cc([N+](=O)[O-])c(O)c([N+](=O)[O-])c2)cc1`, the survival enhancement was inactive: 2.4%.
With `C[As](=O)(O)c1cccc(C(=O)O)c1` the figure was inactive: 0.1%; with `O=[As](O)(c1ccc(O)cc1)c1ccccc1O`, inactive: -0.4%.
With `COc1ccc(N/C(=N/P(=O)(N2CCOCC2)N2CCOCC2)N2CCOCC2)cc1` the figure was inactive: -0.3%; with `O=[N+]([O-])c1cc(Oc2ccc([N+](=O)[O-])cc2C(F)(F)F)cc([N+](=O)[O-])c1`, inactive: -0.9%.
`COc1cc(I)ccc1[As](=O)(O)O`: the survival enhancement is inactive: 1%.
Take `COc1ccc2nc(NP(=O)(c3ccccc3)c3ccccc3)sc2c1`: the survival enhancement was inactive: -0.2%.
The result for `O=P1(N(CCCl)CCCl)Nc2ccccc2N1` reads inactive: 2.1%; that for `O=P1(N(CCCl)CCCl)OCCCN1CCCl` (centres undefined), inactive: 1.7%.
The result for `Cc1cc(=O)[nH]c(N[N+](=O)[O-])n1` reads inactive: -1%; that for `O=C(OC1CN2CCC1CC2)C12CC3CC(CC(C3)C1)C2` (centres undefined), inactive: -1.5%.
In the case of `Cc1c2c(nc3ccccc13)SC(C(Cl)Cl)C2` (centres undefined), the survival enhancement is inactive: -2%.
With `CCOP(=O)(Nc1cccc2ccccc12)OCC` the figure was inactive: -2%; with `COc1cc(C2NCCC3(OCCO3)C2(C)C)cc(OC)c1OC` (centres undefined), inactive: -0.4%.
For the compound `CCCOP(=S)(Nc1nc(N)cc(=O)[nH]1)OCCC`, the survival enhancement is inactive: 0.8%.
The result for `Cc1ccc(NCCc2c([N+](=O)[O-])cc([N+](=O)[O-])cc2[N+](=O)[O-])cc1` reads inactive: -0.7%; that for `Nc1cccc2c([As](=O)(O)O)cccc12`, inactive: 0.5%; that for `Cc1cccc(OCC(=O)OC2CN3CCC2CC3)c1` (centres undefined), inactive: -0.4%.
The result for `O=[As](O)(c1cccc(O)c1)c1cccc(O)c1` reads inactive: -0.5%; that for `CS(=O)(=O)c1ccc(Cl)c(NC(=O)COC(=O)C(O)(c2ccccc2)c2ccccc2)c1`, inactive: -0.5%.
With `O=[As](O)(O)c1cccnc1` the figure was inactive: -0.3%; with `O=C(OC1CN2CCC1CC2)c1ccc(Cl)cc1` (centres undefined), inactive: 0%; with `CN(C(=O)Cc1ccc(Cl)c(Cl)c1)[C@H]1CC[C@@]2(CCCO2)C[C@@H]1N1CCCC1`, inactive: -1.2%.
Turning to `O=[N+]([O-])c1ccc2c(c1)nnn2O`, the survival enhancement was inactive: 6.7%.
Consider `CN(C)C(=O)c1cc([N+](=O)[O-])cc2c1-c1c(cc([N+](=O)[O-])cc1[N+](=O)[O-])C2=O`, for which the survival enhancement was inactive: 1.4%.
The result for `CCOP1(=S)c2c(C)nn(CCC#N)c2N=C(c2ccc(F)cc2)N1C` (centres undefined) reads inactive: -0.4%.
Consider `CN(C(=O)Cc1ccccc1)[C@@H]1CC[C@]2(CCCO2)C[C@H]1N1CCCC1`, for which the survival enhancement is inactive: -0.7%.
With `N#CCCN(C(=O)COC(=O)C(O)(c1ccccc1)c1ccccc1)c1ccc(F)cc1` the figure was inactive: 1.1%.
`NC(=O)Nc1ccc([As](=O)(O)O)cc1`: the survival enhancement is inactive: 3.3%.
The result for `O=C(O)COc1ccc([As](=O)(O)O)cc1[N+](=O)[O-]` reads inactive: -0.6%; that for `Nc1ccccc1[As](=O)(O)c1ccccc1`, inactive: -0.6%.
The result for `CS(=O)(=O)c1cc([N+](=O)[O-])c2no[n+]([O-])c2c1` reads inactive: -0.5%.
`O=P(Nc1nccs1)(Oc1ccccc1)Oc1ccccc1`: the survival enhancement is inactive: -0.3%.
On to `O=P(Nc1nccs1)(c1ccccc1)c1nc2ccccc2s1` (centres undefined), for which the survival enhancement is inactive: -1%.
With `CCOP1(=S)c2c(C)nn(CCC#N)c2N=C(c2ccccc2F)N1C` (centres undefined) the figure was inactive: -2.4%.
With `Cc1ccc(OCC(=O)OC2CN3CCC2CC3)cc1` (centres undefined) the figure was inactive: 1.2%.
